Only a part is listed here, and it is no random draw. Activity calls are given as the source filed them. The call rests on the fitted dose curve; in most records, active means well fitted inhibition curve with a large enough effect; inconclusive means small, poorly fitted or top-dose-only effect; inactive means no such curve, though single readings can be large or run the other way.
These compounds were tested against Isocitrate dehydrogenase [NADP] cytoplasmic (Homo sapiens) (UniProt O75874) (assay: qHTS for Inhibitors of mutant isocitrate dehydrogenase 1 (IDH1): qHTS). Settings: IDH1-R132H enzyme, NADPH consumption, diaphorase/resazurin fluorescence; at 76.6 µM (top of the series).
Source text: Unbiased genomic sequencing for 22 glioma genomes found recurrent mutation of isocitrate dehydrogenase 1 (IDH1) on chromosome 2q33-a gene encoding the cytosolic isoform of IIDH1associated with the tricarboxylic acid cycle (TCA) that catalyzes the oxidative decarboxylation of isocitrate, yielding alpha-ketoglutarate and CO2 via NADP+ to NADPH conversion. Subsequent studies confirmed the recurrent IDH mutations in up to 70% of secondary gliomas and in 10% of AML cases. […] This in effect defines IDH1 as an oncogene, and provides an extraordinary opportunity to discover chemical probes against mutant IDH1 that may translate into much needed new therapies for glioma and AML patients. […] NIH Chemical Genomics Center [NCGC] NIH Molecular Libraries Probe Centers Network [MLPCN] MLPCN Grant: DA032129 Assay Submitter (PI): Lenny Dang, Agios Pharmaceuticals
IDH1-R132H (0.5 ug/mL) was dispensed into black, solid-bottom 1536-well plates at 3 uL/well in 20 mM Tris-HCl (pH 7.5), 150 mM NaCl, 10 mM MgCl2, 4 mM beta-ME, and 0.05% protease-free BSA. Then, 23 nL of compounds or DMSO were delivered to each well using a pin tool. A pre-read was run on the Viewlux to identify fluorescent compounds (540 nm excitation filter, 598 nm emission filter, bodipy mirror and 2 second exposure). After 30 minutes of incubation with compound, 3 uL of substrate mix were dispensed (0.016 mM NADPH, 2 mM alpha-KG, 20 mM Tris-HCl (pH 7.5), 150 mM NaCl, 10 mM MgCl2, and 0.05% protease-free BSA). Plates were spun for 1 min at 1000xg and incubated at room temperature for 80 min. Then 1.5 uL of each detection reagent component for the coupling system were added (0.12 mg/mL diaphorase and 0.072 mM resazurin, each in 20 mM Tris-HCl (pH 7.5), 150 mM NaCl, 10 mM MgCl2, and 0.05% protease-free BSA ) The protein, substrate and two detection components were maintained at 4 °C throughout the screen. Additionally, the substrate and resazurin reagents were protected from light. The plates were measured on an Envision plate reader for fluorescence signal using a 540 nm excitation filter and 590 nm emission filter with 10 flashes. 1x and 0x (no-enzyme) IDH1-R132H enzyme control were used to normalize %Activity of identified inhibitors; 0x enzyme values corresponded to 100% Activity (full inhibition), while 1x IDH1-R132H enzyme values were used to normalize 0%Activity (no inhibition). Concentration-response curves were fitted to the signals arising from the resulting fluorescence. The concentration-effect curves were then classified based on curve quality (r2), response magnitude and degree of measured activity, and compounds were subsequently categorized based on their curve class. […] Keywords: isocitrate dehydrogenase, IDH1, IDH1-R132H, MLSMR, MLPCN, NIH Roadmap, qHTS, NCGC
Further: nearly all actives have a fitted effect of over 65% in size.

Chains of the proteins cited; added tags and fusions are not shown.
UniProt O75874, whole entry R132H: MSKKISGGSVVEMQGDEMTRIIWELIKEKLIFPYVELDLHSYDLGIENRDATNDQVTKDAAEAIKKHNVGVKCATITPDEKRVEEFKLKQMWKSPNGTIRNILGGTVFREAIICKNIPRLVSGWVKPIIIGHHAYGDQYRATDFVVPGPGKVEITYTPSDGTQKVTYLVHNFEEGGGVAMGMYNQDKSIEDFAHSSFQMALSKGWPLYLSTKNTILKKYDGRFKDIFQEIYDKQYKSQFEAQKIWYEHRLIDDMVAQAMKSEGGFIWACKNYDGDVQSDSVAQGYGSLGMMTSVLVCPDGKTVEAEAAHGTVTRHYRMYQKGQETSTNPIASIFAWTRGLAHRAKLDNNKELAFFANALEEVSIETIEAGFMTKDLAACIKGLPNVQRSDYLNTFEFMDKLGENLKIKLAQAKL

SMILES | activity change, negative = inhibition
c1ccc(CN2CCC(Nc3ccccc3)CC2)cc1 | inactive: 2.46%
CCCN1CCC(Nc2cc(OC)cc(OC)c2)CC1 | inactive: 11.2%
O=C(NCC1(N2CCOCC2)CCCCC1)c1ccccc1 | inactive: -9.23%
Cc1cc(N(CCCl)CCCl)ccc1C=O | inactive: 4.67%
CN(C)C1(CNC(=O)c2cccc(C#N)c2)CCCCC1 | inactive: 1.47%
CC(C)(C)OC(=O)N1CCC(N(C(=O)c2ccccc2)c2ccc(Cl)cc2)CC1 | inactive: -1.12%
O=C(NCC1(N2CCOCC2)CCCCC1)c1ccc([N+](=O)[O-])cc1 | inactive: -1.7%
N#Cc1ccc(C(=O)NCC2(N3CCCCC3)CCCCC2)cc1 | inactive: 2.72%
O=C(NCC1(N2CCOCC2)CCCCC1)c1ccccc1[N+](=O)[O-] | inactive: 16.4%
CCOC(=O)C(CC)C1=NC(C)(C)Cc2ccccc21.O=[N+]([O-])c1cc([N+](=O)[O-])c(O)c([N+](=O)[O-])c1 (centres undefined) | inactive: 5.06%
N/C(=N\O)c1c(N)no[n+]1[O-] | inactive: -1.83%
CCOC(=O)N1CCC(Nc2ccc(C)cc2)CC1 | inactive: 8.33%
O=C(OC1CN2CCC1CC2)C1c2ccccc2C=Cc2ccccc21 (centres undefined) | inactive: 1.48%
CCc1cc(C(=O)NCC2(N3CCCCC3)CCCCC2)sc1C | inactive: -11.3%
O=C(O)c1cccc(Nc2c([N+](=O)[O-])cc([N+](=O)[O-])cc2[N+](=O)[O-])c1 | inactive: 16.1%
O=C(NCC1(N2CCOCC2)CCCCC1)c1cc(Br)ccc1Cl | inactive: 2.25%
COc1cc(C(=O)NCC2(N3CCOCC3)CCCCC2)cc(OC)c1C | inactive: 8.84%
COc1ccc(C(=O)NCC2(N3CCOCC3)CCCCC2)cc1OC | inactive: 0.41%
CCC(CO)(C(=O)OC1CN2CCC1CC2)c1ccccc1 (centres undefined) | inactive: -2.71%
COc1cc(C(=O)NCC2(N3CCOCC3)CCCCC2)cc(OC)c1OC | inactive: -0.752%
COc1cc(OC)cc(C(=O)NCC2(N3CCOCC3)CCCCC2)c1 | inactive: 3.74%
COc1cccc(C(=O)N(c2cc(C)cc(C)c2)C2CCN(C(=O)OC(C)(C)C)CC2)c1 | inactive: -6.9%
CN1CCC(Nc2ccc(Cl)cc2)CC1 | inactive: -9.28%
CCOc1ncccc1C(=O)NCC1(N2CCOCC2)CCCCC1 | inactive: 4.24%
CN1CCC(Nc2ccc(F)c(Cl)c2)CC1 | inactive: 9.29%

SMILES | activity change, negative = inhibition
CCCOc1ccc(C(=O)NCC2(N(C)C)CCCCC2)cc1 | inactive: -3.66%
CC(C)(C)OC(=O)N1CCC(Nc2ccccc2)CC1 | inactive: 6.15%
O=C(O)C1(Nc2ccccc2)CCN(Cc2ccccc2)CC1 | inactive: 1.63%
Cc1ccccc1NC1(C#N)CCN(Cc2ccccc2)CC1 | inactive: -7.35%
CCN1CCC(Nc2cccc(F)c2)CC1 | inactive: 2.29%
CC(C)(C)c1ccc(C(=O)NCC2(N3CCOCC3)CCCCC2)cc1 | inactive: 21.1%
O=C(NCC1(N2CCCCC2)CCCCC1)c1ccco1 | inactive: 1.73%
Cn1c(=O)[nH]cc(N(CCCl)CCCl)c1=O | inactive: 0.542%
CN(C)c1ccc(C(=O)NCC2(N3CCCCC3)CCCCC2)cc1 | inactive: -8.57%
Cc1ccccc1C(=O)NCC1(N(C)C)CCCCC1 | inactive: 2.58%
COc1cc(OC)cc(C(=O)NCC2(N3CCCCC3)CCCCC2)c1 | inactive: 3.72%
CC(=O)N(c1ccccc1)C1CCNCC1 | inactive: -16.3%
CN(C)C1(CNC(=O)c2ccc(C(C)(C)C)cc2)CCCCC1 | inactive: 0%
Cc1ccc(NC2(C#N)CCN(Cc3ccccc3)CC2)cc1 | inactive: 12.8%
Cc1ccc(C(=O)NCC2(N3CCCCC3)CCCCC2)o1 | inactive: 1.14%
Cc1ccc(Nc2c([N+](=O)[O-])cc([N+](=O)[O-])cc2[N+](=O)[O-])cc1 | inactive: -1.89%
Fc1ccccc1NC1CCN(Cc2ccccc2)CC1 | inactive: -0.0294%
COc1cc(C(=O)NCC2(N(C)C)CCCCC2)ccc1OC(F)F | inactive: -0.631%
CCOC(=O)N1CCC(Nc2cccc(C)c2)CC1 | inactive: 0.113%
CCOc1ccc(C)cc1CN(CCCl)CCCl | inactive: 0.909%
O=C(NCC1(N2CCOCC2)CCCCC1)c1ccc(Cl)cc1 | inactive: 4.97%
O=C1CCN(Cc2ccccc2)CC1 | inactive: -11.3%
O=C(NCC1(N2CCCCC2)CCCCC1)c1ccc(F)cc1 | inactive: -12%
O=P1(N(CCCl)CCCl)SCCCS1 | inactive: 1.65%

Reference: PubChem BioAssay AID602179 (National Center for Advancing Translational Sciences (NCATS), 2012)
